pEC50: −log10 of the molar value.
What was measured:
[1] = biological target: 5-hydroxytryptamine receptor 2B (Rattus norvegicus, UniProt P30994)
[2] = biological target: T1, 5-hydroxytryptamine receptor 2C (Rattus norvegicus, UniProt P08909)
T1 sequence (P08909 whole entry): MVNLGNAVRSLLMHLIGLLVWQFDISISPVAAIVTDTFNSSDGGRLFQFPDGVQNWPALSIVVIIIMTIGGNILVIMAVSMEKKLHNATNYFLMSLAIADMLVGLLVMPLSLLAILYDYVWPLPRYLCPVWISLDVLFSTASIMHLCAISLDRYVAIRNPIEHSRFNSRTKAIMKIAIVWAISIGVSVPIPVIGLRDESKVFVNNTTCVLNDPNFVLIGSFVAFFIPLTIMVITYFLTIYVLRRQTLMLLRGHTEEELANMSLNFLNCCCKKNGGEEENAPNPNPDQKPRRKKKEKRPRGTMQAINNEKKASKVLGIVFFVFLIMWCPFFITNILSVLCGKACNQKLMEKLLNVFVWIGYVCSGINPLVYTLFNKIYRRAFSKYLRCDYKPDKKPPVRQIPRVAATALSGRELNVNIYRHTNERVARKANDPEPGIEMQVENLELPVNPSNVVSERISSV

Protein sequences, listed by entry. Tags and fused reporters are not part of them.
UniProt P30994, whole entry: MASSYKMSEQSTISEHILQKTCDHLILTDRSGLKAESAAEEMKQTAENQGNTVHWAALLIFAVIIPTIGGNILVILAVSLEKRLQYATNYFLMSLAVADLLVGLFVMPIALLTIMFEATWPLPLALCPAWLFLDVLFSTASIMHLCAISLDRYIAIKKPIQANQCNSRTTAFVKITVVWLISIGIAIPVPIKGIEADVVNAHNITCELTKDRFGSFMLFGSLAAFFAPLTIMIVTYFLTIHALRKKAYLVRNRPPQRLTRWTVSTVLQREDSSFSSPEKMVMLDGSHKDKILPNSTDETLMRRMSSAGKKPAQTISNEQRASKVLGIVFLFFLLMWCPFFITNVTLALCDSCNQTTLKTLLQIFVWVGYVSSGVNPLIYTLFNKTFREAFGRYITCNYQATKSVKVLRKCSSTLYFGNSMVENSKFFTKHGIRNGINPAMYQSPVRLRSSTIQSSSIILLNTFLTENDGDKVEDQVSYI

COc1ccc2[nH]cc(CCN(C)C)c2c1 [MEBUFOTENIN]
pEC50 [1]: 6.62
pEC50 [2]: 7.11

Source: ChEMBL document CHEMBL1148572
